# Data taken from PMC5451150 (Journal of Medicinal Chemistry, 2016).
# Target: T1, NSD2 (Homo sapiens, UniProt O96028)
# T1 sequence (O96028 1-1365): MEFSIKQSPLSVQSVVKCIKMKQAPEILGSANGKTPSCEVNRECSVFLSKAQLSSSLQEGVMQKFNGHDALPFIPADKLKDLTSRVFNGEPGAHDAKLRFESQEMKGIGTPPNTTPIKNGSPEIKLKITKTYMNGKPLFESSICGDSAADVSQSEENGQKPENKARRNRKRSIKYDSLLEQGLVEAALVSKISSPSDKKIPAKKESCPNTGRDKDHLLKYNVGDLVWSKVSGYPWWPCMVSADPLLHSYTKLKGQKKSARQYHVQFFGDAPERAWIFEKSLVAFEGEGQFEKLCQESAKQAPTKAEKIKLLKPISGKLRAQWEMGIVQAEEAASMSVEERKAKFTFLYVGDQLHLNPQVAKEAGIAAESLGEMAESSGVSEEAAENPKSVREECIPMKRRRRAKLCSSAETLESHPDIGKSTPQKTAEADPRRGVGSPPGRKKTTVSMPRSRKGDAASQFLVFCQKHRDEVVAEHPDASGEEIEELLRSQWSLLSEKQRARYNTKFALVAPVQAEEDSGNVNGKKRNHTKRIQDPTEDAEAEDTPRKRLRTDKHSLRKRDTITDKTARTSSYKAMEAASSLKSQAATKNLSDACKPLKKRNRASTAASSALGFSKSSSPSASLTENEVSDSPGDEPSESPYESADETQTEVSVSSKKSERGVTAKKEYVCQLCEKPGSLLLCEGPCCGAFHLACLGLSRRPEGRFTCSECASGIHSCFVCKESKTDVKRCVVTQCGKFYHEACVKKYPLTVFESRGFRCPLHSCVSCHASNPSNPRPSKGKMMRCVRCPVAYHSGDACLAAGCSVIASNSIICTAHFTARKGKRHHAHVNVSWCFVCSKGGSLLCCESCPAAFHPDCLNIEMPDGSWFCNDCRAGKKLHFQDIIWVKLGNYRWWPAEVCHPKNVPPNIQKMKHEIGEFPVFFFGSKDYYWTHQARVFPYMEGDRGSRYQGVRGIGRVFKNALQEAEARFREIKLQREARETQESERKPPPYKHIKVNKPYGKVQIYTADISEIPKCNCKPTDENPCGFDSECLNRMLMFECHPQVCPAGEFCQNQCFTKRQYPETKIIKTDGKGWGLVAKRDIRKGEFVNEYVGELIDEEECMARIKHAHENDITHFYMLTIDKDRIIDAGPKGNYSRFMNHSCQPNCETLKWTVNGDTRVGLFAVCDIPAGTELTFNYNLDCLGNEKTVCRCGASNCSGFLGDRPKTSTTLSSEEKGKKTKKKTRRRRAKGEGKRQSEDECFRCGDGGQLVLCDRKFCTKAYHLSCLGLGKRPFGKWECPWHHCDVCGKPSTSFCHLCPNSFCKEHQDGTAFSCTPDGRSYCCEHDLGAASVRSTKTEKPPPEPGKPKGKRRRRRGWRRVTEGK
# Assay: Methyltransferase selectivity panel: NSD2
# Type: biochemical
# Conditions: substrate Nucleosomes; top concentration 10 µM
structure (smiles),measurement,value
"Nc1ncnc2c1ncn2[C@@H]1O[C@H](CSCC[C@H](N)C(=O)O)[C@@H](O)[C@H]1O [SAH, reference compound]",IC50,9.88 µM
